According to US20140227375A1, “PIP-2 Inhibition-Based Antiviral and Anti-Hyperlipidemic Therapies” (priority 2008, published 2014):

Tested on: Huh 7.5 cells
Experiment: Alamar blue cell viability assay
Details: relative cell viability, electroporated cells treated with neomycin

Substance: neomycin
- concentration up to which no toxicity was observed: greater than 1 mM
